Experimental data published in ChEMBL document CHEMBL5236619, “Design and Optimization of 1H-1,2,3-Triazole-4-carboxamides as Novel, Potent, and Selective Inverse Agonists and Antagonists of PXR” (J Med Chem, 2022).

Each molecule was assayed against T1, PXR (NR1I2) (Homo sapiens, UniProt O75469) (assay: Inverse agonist activity at human PXR in human HepG2 cells co-expressing luciferase gene under control of CYP3A4 promoter assessed as inhibition in receptor basal activity at 10 uM incubated for 24 hrs by luminescence based analysis relative to control). Details: not given; call rule not given here.
T1 sequence (O75469 whole entry): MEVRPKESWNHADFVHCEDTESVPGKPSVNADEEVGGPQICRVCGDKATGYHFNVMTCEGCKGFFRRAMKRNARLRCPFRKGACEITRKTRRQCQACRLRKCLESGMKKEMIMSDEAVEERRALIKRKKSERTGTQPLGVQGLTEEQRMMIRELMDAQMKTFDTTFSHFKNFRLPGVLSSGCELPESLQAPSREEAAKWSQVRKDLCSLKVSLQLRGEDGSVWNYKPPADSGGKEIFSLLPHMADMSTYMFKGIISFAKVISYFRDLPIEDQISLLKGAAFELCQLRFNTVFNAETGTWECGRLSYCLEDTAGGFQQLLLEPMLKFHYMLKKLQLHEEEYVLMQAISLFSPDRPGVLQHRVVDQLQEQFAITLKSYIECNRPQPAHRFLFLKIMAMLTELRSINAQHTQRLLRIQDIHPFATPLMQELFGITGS
Assay type: cell-based

inhibition at 24 h, 10 µM [%]	SMILES
138	COc1ccc(OC)c(-n2nnc(C(=O)Nc3ccc(O)c(C(C)(C)C)c3)c2C)c1
83	CCCCCCCCOc1ccc(C(C)(C)C)cc1NC(=O)c1nnn(-c2cc(OC)ccc2OC)c1C
64	COc1ccc(OC)c(-n2nnc(C(=O)Nc3cccc(N4CCCC4)c3)c2C)c1
123	COc1ccc(OC)c(-n2nnc(C(=O)Nc3cccc(C(C)C)c3)c2C)c1
87	COc1ccc(OC)c(-n2nnc(C(=O)Nc3cc(N)cc(C(C)(C)C)c3)c2C)c1
109	CCCCCOc1ccc(C(C)(C)C)cc1NC(=O)c1nnn(-c2cc(OC)ccc2OC)c1C
108	COc1ccc(OC)c(-n2nnc(C(=O)Nc3cc(C(C)(C)C)cc(C(C)(C)C)c3)c2C)c1
139	COc1ccc(OC)c(-n2nnc(C(=O)Nc3cc(Br)cc(C(C)(C)C)c3)c2C)c1
67	CCC(C)COc1ccc(C(C)(C)C)cc1NC(=O)c1nnn(-c2cc(OC)ccc2OC)c1C (stereo not drawn)
86	COc1ccc(OC)c(-n2nnc(C(=O)Nc3cc(C(C)(C)C)ccc3OCCCN3CCOCC3)c2C)c1
139	COc1ccc(OC)c(-n2nnc(C(=O)Nc3cc(-c4ccccc4)cc(C(C)(C)C)c3)c2C)c1

What follows are molecules tested against T2, PXR (NR1I2) ligand binding domain (Homo sapiens, UniProt O75469) (assay: Inhibition of BODIPY FL vindoline binding to recombinant human GST-tagged PXR LBD (111 to 434 residues) expressed in baculovirus infected insect cells at 10 uM incubated for 1 mins under shaking condition followed by 60 mins under dark condition by TR-FRET assay relative to control). Details: probe BODIPY FL vindoline, time 61 min.
T2 sequence (O75469 whole entry): T1 sequence (O75469 whole entry)

inhibition at 1.017 h, 10 µM [%]	SMILES
64	COc1ccc(OC)c(-n2nnc(C(=O)Nc3cccc(N4CCCC4)c3)c2C)c1

The molecules below were run against T3, Nuclear receptor subfamily 1 group I member 2 (Homo sapiens, UniProt O75469) (assay: Inhibition of BODIPY FL vindoline binding to recombinant human GST-tagged PXR LBD (111 to 434 residues) expressed in baculovirus infected insect cells incubated for 1 mins under shaking condition followed by 60 mins under dark condition by TR-FRET assay). Details: 1.017 h, time 61 min.
T3 sequence (O75469 whole entry): T1 sequence (O75469 whole entry)

inhibition (INH)	SMILES
Not Active	COc1ccc(OC)c(-n2nnc(C(=O)Nc3cc(-c4ccccc4)cc(C(C)(C)C)c3)c2C)c1
